“And” between values parts separate entries of the source, which are not always exact repeats. Identical values can stand only once. This is a selection; strong and weak results do not stand in their true shares. Records with an inconclusive call do not appear. The source made the active and inactive calls. The call rests on the fitted dose curve.
Biological target: Acetylcholinesterase (Homo sapiens) (UniProt P22303)
Assay: Acetylcholinesterase (AChE) small molecule antagonists: colormetric cell-based qHTS assay (AID 1347395); further: nearly all actives have a fitted effect of over 30% in size
Details: SH-SY5Y cells AChE activity, colorimetric (Ellman)
Excerpt: National Center for Advancing Translational Sciences [NCATS]
Division of Preclinical Innovation [DPI]
U.S. Environmental Protection Agency [EPA]
National Institutes of Environmental Health Sciences [NIEHS]
National Toxicology Program [NTP]
U.S. Food and Drug Administration [FDA]
Acetylcholinesterase (AChE) is the primary cholinesterase in the body that hydrolyzes a key neurotransmitter, acetylcholine. Inhibition of AChE activity can lead to neurotoxicity. The known inhibitors include organophosphorous pesticides (OP), chemical warfare agents, drugs, and various phytochemicals.
A homogenous cell-based assay using the Amplite Colormetric acetylcholinesterase assay kit (AAT Bioquest, Sunnyvale, CA) was used to evaluate the chemicals in the Tox21 10K library that inhibit AChE activity. The assay uses 5, 5-dithiobis-(2-nitrobenzoic acid) (DTNB) to quantify the thiocholine produced from the hydrolysis of acetylthiocholine by AChE from the SH-SY5Y cells.
Tox21 Assay Protocol Summary:
For the cell-based AChE assay, 2,000 SH-SY5Y cells in 4 uL/well were dispensed into black, clear-bottom 1536-well plates using a Multidrop Combi dispenser (Thermo Scientific, MA). The assay plates were incubated overnight at 37 C to allow cells to attach to the wells, followed by the transfer of 23 nL of compound or DMSO (vehicle control) by a Pintool Station (Wako Automation, CA). The plates were incubated for 30 min at 37 C and 5% CO2, followed by the addition of 4 uL of detection cocktail solution (DTNB, acetylthiocholine) into each well using a Flying Reagent Dispenser (Beckman Coulter, CA) and then 90 min incubation at 37 C.
Potency means the concentration at half of the fitted maximal effect.

Protein sequences, listed by entry. Tags and fused reporters are not part of them. Lines headed by an entry give the natural chain unless they say otherwise; changes in a name come on top.
UniProt P22303: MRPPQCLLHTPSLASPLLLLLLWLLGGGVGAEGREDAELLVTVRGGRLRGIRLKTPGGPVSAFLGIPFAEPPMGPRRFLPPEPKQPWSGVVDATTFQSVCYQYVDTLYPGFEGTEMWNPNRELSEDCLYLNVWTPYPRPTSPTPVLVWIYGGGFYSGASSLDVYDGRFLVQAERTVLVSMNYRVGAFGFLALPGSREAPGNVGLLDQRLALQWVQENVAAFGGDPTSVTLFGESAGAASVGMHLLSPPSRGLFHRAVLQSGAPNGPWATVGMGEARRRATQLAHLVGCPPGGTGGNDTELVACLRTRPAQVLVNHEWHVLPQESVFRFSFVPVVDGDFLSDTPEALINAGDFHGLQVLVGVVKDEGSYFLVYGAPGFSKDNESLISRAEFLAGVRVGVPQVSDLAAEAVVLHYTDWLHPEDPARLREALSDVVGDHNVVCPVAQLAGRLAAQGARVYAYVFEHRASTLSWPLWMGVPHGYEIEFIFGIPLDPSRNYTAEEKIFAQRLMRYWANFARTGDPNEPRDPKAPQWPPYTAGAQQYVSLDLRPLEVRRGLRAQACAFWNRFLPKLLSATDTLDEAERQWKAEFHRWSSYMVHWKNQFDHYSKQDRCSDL

Compound | Potency
COc1ccc2cc3[n+](cc2c1OC)CCc1cc2c(cc1-3)OCO2 | active: 285 nM and active: 2.45 µM
CCOP(=O)(OCC)O/C(=C/Cl)c1ccc(Cl)cc1Cl | active: 2.52 µM
CCN(CC)CCCC(C)Nc1c2ccc(Cl)cc2nc2ccc(OC)cc12 (stereo unspecified) | active: 24.5 µM
c1ccc(C[n+]2cccc3ccccc32)cc1 | active: 11.2 µM
CNC(=O)O/N=C/C(C)(C)SC | active: 6.39 µM and active: 5.64 µM
Nc1c2ccccc2nc2ccccc12 | active: 556 nM and active: 871 nM
CN(C)c1ccc2nc3ccc(=[N+](C)C)cc-3sc2c1 | active: 859 nM and active: 710 nM and active: 1.1 µM
CNC(=O)O/N=C/C(C)(C)S(C)(=O)=O | active: 17.9 µM and active: 11.2 µM
COP(=S)(OC)SCn1nnc2ccccc2c1=O | active: 39.1 µM and active: 28.3 µM
CO[C@]12C[C@@H](COC(=O)c3cncc(Br)c3)CN(C)[C@@H]1Cc1cn(C)c3cccc2c13 | active: 3.47 µM
COc1cc(C(=O)NCc2ccc(OCCN(C)C)cc2)cc(OC)c1OC | active: 6.92 µM

Reference: PubChem BioAssay (Tox21)
